Literature values as cited in the CATMoS acute toxicity set (Mansouri et al. 2021).

Test: rat acute oral toxicity
Details: in vivo

Structure (SMILES)	LD50
CCC(C)(C)c1ccc(O)cc1	1830 mg/kg
COc1ccc(Cc2cnc(N)nc2N)cc1OC	3680 mg/kg
CC(=Cc1ccccc1)CC(=O)NCCO	1380 mg/kg
CCN(CC)C(=O)CC(C)=Cc1ccccc1	2300 mg/kg
Cc1ccc(C(=O)c2ccc(CC(=O)O)n2C)cc1	914 mg/kg
Cc1cc2cccnc2n(-c2ccccc2)c1=O	256 mg/kg
O=c1[nH]c(=O)n(C2CCCO2)cc1F (stereo unspecified)	930 mg/kg
C=CCn1c(=O)c2[nH]c(C)nc2n(CCCC)c1=O	24 mg/kg
COC(=O)[C@H]1[C@H]2C[C@@H]3c4[nH]c5cc(OC)ccc5c4CCN3C[C@H]2C[C@@H](O)[C@@H]1OC	479 mg/kg
Cc1ccc(C(=O)c2ccc(CC(=O)NCC(=O)Nc3cccc(C)c3C)n2C)cc1	1300 mg/kg
CC(C)CCC(C)Nc1ccc(Nc2ccccc2)cc1 (stereo unspecified)	2100 mg/kg
Cc1oncc1C(=O)N1CCCCC1	1240 mg/kg
COc1cc(CN2CCN(C(=O)c3cc4ccccc4o3)CC2)cc(OC)c1OC	1000 mg/kg
Nc1ccc(Cc2ccc(N)c(Cl)c2)cc1Cl	1140 mg/kg
Cc1ccc2c(c1)CC(=O)c1cc(CC(=O)O)ccc1O2	326 mg/kg
CN1c2c(oc(=O)n(-c3ccccn3)c2=O)-c2ccccc2S1(=O)=O	1430 mg/kg
